The test has as its target T1, human CD38 (Homo sapiens, UniProt P28907).
T1 construct: CD38, human; Used for both the SPR and the cryo-EM complex; probably a soluble extracellular form
Nature of the test: SPR; Biacore 8 K. As to conditions: both partners purified. (SPR reads the build-up and loss of mass on a sensor chip optically.)

By UniProt entry, the sequences of proteins in these tests, tags left out. Residues count along the entry.
UniProt P28907, 45-300: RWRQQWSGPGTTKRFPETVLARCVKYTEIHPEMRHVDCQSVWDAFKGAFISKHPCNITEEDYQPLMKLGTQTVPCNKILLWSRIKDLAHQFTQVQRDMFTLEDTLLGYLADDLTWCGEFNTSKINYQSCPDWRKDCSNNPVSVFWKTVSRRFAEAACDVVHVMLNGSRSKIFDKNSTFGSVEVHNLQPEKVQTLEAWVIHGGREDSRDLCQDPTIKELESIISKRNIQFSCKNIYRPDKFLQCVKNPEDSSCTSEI

This passage reports Kd results from paper PMC9798557 (Journal of Hematology & Oncology, 2022).

B1: FTL004, humanized IgG1κ anti-CD38 mAb (antibody, V domains shown)
VH: QVQLVQSGSELKKPGASVKVSCKASGYTFTDYNVHWIRQAPGQGLEWIGYFYPRNGATHYNQKFTGRAVLSADTSVSTAYLQISSLKAEDTAVYFCARGETPGTFPYWGQGTLVTVSS
VL: DIVLTQSPASLAVSPGQRATITCRASESVDNFGITFMHWYQQKPGQPPKLLIYRASNLESGVPARFSGSGSRTDFTLTINPVEANDTANYYCQQSSKDPRTFGQGTKLEIK
A word on the Kd: it is a measure of binding affinity in units of concentration. A higher Kd goes with a looser complex. Regarding B1, the Kd came out at 2.55 nM.
